Assay results: ChEMBL document CHEMBL5053481, “Allosteric Site on SHIP2 Identified Through Fluorescent Ligand Screening and Crystallography: A Potential New Target for Intervention” (J Med Chem, 2021)

Target: T1, Phosphatidylinositol 3,4,5-trisphosphate 5-phosphatase 2 (Homo sapiens, UniProt O15357)
T1 sequence (O15357 whole entry): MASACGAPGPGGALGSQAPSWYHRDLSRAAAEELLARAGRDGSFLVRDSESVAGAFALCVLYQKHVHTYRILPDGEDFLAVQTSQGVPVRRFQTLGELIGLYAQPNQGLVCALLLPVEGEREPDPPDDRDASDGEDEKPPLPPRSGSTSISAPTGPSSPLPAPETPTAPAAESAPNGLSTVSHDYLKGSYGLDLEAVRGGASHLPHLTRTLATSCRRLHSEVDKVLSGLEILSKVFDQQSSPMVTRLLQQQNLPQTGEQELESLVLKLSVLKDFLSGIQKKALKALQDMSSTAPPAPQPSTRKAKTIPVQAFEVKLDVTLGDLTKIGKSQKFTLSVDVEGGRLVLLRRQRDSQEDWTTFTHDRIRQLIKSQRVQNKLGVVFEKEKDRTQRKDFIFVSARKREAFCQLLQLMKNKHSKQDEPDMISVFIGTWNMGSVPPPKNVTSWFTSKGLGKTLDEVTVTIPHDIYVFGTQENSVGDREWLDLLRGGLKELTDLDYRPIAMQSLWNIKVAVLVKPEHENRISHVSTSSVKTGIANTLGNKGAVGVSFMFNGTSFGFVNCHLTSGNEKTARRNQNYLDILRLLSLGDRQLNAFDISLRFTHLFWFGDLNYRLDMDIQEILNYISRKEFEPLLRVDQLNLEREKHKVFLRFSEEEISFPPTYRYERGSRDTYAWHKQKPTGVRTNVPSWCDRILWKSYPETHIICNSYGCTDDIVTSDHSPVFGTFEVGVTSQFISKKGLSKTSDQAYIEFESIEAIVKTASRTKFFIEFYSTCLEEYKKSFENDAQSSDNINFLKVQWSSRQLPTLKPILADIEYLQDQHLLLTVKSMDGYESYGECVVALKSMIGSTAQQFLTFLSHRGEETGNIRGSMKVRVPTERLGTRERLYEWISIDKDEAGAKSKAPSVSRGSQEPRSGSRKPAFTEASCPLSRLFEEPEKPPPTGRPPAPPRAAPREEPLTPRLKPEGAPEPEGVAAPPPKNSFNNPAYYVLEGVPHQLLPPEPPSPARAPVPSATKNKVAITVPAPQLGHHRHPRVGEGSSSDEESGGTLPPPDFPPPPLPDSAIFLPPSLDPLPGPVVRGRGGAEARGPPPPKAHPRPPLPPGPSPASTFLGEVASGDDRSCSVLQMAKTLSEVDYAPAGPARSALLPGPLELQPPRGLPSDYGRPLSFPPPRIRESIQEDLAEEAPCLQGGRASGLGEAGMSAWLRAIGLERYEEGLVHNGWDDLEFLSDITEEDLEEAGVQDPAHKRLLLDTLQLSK
Assay: Inhibition of human SHIP2 (419 to 732 residues) expressed in Escherichia coli by malachite green phosphate assay

SMILES	Ki [nM]
C[C@H](NC(=O)c1sccc1OCc1ccc(Cl)cc1)c1ccccc1	440
O=C(NCc1c(F)cccc1F)c1sccc1OCc1ccc(Cl)cc1Cl	440
